# Shown are actives, neighbours in structure and some others; about 16% of the full set was active somewhere.
# DT40 TDP1 CPT = DT40-hTDP1 cell growth loss with CPT. 420,000 tested, 12% active. chicken DT40 Tdp1-/-;hTDP1 cells + 20 nM CPT, ATP luminescence, 48 h. AID 686979. Potency, µM (top dose mostly 46.2 µM), inactives show at the highest dose activity change, negative = growth inhibition, actives largely listed as inhibitors; also: potency is read from the fitted curve at half-maximal effect; % is scaled to controls: 0 for no effect and ±100 for the full control effect; nearly all actives have a fitted effect of over 55% in size
#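 Chicken DT40 Tdp1-/- cells complemented with human TDP1, 400 cells/well, exposed to compounds plus 20 nM camptothecin for at least 48 h at 37 C; viability read as ATP content by CellTiter-Glo luminescence.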
# miR-21 reporter = miR-21 reporter, rising signal; Potency, µM (titrated, usually from 38.3 µM), without a hit: at the highest dose reporter change, positive = more light; AID 2288; 340,000 tested, under 10 active; HeLa miR-21 FLuc reporter, luciferase, 48 h; active = well fitted rising curve with a large enough effect; inconclusive = small, poorly fitted or top-dose-only effect; inactive = no such curve, though single readings can be large or run the other way;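 note: % of control where 0% means no effect; miR-21 action dims this reporter so a rising signal means less miR-21 action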
#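 HeLa miR-21-FLuc reporter line, endogenous miR-21; 2000 cells/well in DMEM/10% FBS; compound titration up to ~40uM final, 48 h, 37 degree Celsius; luciferase detection reagent, 15 min lysis, CCD luminescence.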
# TDP1 cell noCPT = qHTS for Inhibitors of human tyrosyl-DNA phosphodiesterase 1 (TDP1): qHTS in cells in absence of CPT; 420,000 tested, 15% active; AID 686978, 2013; Potency, µM (highest dose often 46.2 µM), without a hit: at the top dose activity change, negative = growth inhibition, usual class: inhibitors; DT40 Tdp1-/- hTDP1 cells, no CPT, ATP luminescence, 48 h; also: potency is read from the fitted curve at half-maximal effect; % is scaled to controls: 0 for no effect and ±100 for the full control effect; nearly all actives have a fitted effect of over 55% in size
#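 Cells were dispensed at 400 per well, compounds added by pin tool, plates incubated ≥48 hr at 37 °C, then CellTiter-Glo added for 30 min at room temperature before luminescence reading. Line: DT40 Tdp1-/- complemented with hTDP1; camptothecin omitted.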
# TDP1 inh = blocks human tyrosyl-DNA phosphodiesterase 1. recombinant TDP1, AlphaScreen DNA substrate cleavage. 350,000 tested, 0.28% active. Q9NUW8. Potency, µM (series often up to 130 µM), inactives show at the top dose activity change, negative = inhibition, actives largely listed as inhibitors; also: potency is read from the fitted curve at half-maximal effect; % is scaled to controls: 0 for no effect and ±100 for the full control effect; nearly all actives have a fitted effect of over 40% in size
#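 Steps: enzyme plus compound, 15 min RT; add biotin/phosphotyrosine-FITC oligonucleotide (15 nM final), react 5 min; add donor/acceptor beads (10 ug/ml final), 10 min; read AlphaScreen. Tdp1 at 1 nM final.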
# uPA surface inh = inhibitors of cell surface uPA generation | Potency, µM (series often up to 38.3 µM), for the others: top-dose activity change, negative = inhibition, hits mostly inhibitors | cell surface uPA generation assay, qHTS | 330,000 tested, 0.31% active; active = well fitted inhibition curve with a large enough effect; inconclusive = small, poorly fitted or top-dose-only effect; inactive = no such curve, though single readings can be large or run the other way; tested in mouse RAW 264.7 cells; also: potency is read from the fitted curve at half-maximal effect; % is scaled to controls: 0 for no effect and ±100 for the full control effect; nearly all actives have a fitted effect of over 55% in size
# An asterisk follows results filed as active; ? = inconclusive; . = no result given; [ ] = dose if it differs, or a comment. Unless noted, calls follow the shape of the dose curve; as a rule, active = well fitted curve in the direction sought with a large enough effect; inconclusive = small, poorly fitted or top-dose-only effect, or another doubt; inactive = no such curve, though single readings can be large; an effect the other way counts as inactive or inconclusive.
SMILES,TDP1 inh,uPA surface inh,miR-21 reporter,TDP1 cell noCPT,DT40 TDP1 CPT
CCOC(=O)c1c(NC(=O)CN2CCN(C(=O)c3ccco3)CC2)sc(C)c1C,6.8%,14.4%,-6.4%,14.6µM*,?
CCOC(=O)c1ccc(NC(=O)CN2CCN(C(=O)c3ccco3)CC2)cc1,6.5%,2.7%,1.9%,-2.8%,-7.1%
CCc1c(C)sc(NC(=O)CN2CCN(C(=O)c3ccco3)CC2)c1C(=O)OC,9.0%,1.6%,14.8%,?,18.4µM*
CN(N=Nc1nc[nH]c1C(=O)NN)C1CCCCC1,.,4.3%,.,-1.8%,-15.6%
O=C(CSc1nnc(-c2ccc(O)cc2)o1)NNC(=O)c1ccncc1,.,0.1%,-0.3%,4.4%,9.0%
Cc1ccc2oc(-c3ccc(C)c(NC(=O)/C=C/c4ccco4)c3)nc2c1,-7.1%,.,-31.3%,-24.1%,-19.1%
CCC(=O)Nc1cccc(-c2nc3ccccc3o2)c1,0.0%,-2.1%,-31.9%,-12.5%,-14.0%
O=C(Nc1cccc(-c2nc3ccccc3o2)c1)C(F)(F)F,0.4%[12.3 µM],.,-48.2%,2.91µM*,3.66µM*

# (list continues)
SMILES,TDP1 inh,uPA surface inh,miR-21 reporter,TDP1 cell noCPT,DT40 TDP1 CPT
Cc1ccc(-n2nc3ccc(NC(=S)NC(=O)/C=C/c4ccco4)cc3n2)cc1,5.3%,-0.6%,-16.7%,-5.1%,-11.9%
Cc1ccc(-c2nc3ccccc3o2)cc1NC(=S)NC(=O)/C=C/c1ccco1,7.0%,-1.4%,-9.3%,2.91µM*,2.91µM*
O=C(/C=C/c1ccco1)NC(=S)Nc1cccc(-c2nc3ccccc3o2)c1,5.9%,?,14.4%,3.26µM*,4.61µM*
Cn1ncc2c(NNC(=O)c3ccc(Cl)cc3Cl)ncnc21,8.0%,-3.1%,-10.2%,?,-5.7%
COCCNC(=O)c1ccc2c(c1)S(=O)(=O)c1cc(Cl)ccc1C2=O,-0.2%,4.6%,.,?,-27.6%
C/C(=N/NC(=O)c1ccc2c(c1)OCO2)c1ccc(Br)s1,-2.7%,-15.8%,-32.8%,-19.5%,-28.7%
C/C(=N\NC(=O)c1ccc(Cl)c(Cl)c1)c1ccc(Br)s1,-0.6%,2.2%,-3.0%,1.46µM*,1.46µM*
C/C(CC(=O)Nc1ccccn1)=N\NC(=O)c1ccccc1,5.4%,.,-47.5%,.,.

# (more compounds)
SMILES,TDP1 inh,uPA surface inh,miR-21 reporter,TDP1 cell noCPT,DT40 TDP1 CPT
C/C(=N\NC(=O)c1cccc2ccccc12)c1ccccn1,4.4%,-1.9%,-5.0%,1.46µM*,1.16µM*
C/C(CC(=O)Nc1ccccn1)=N\NC(=O)c1ccccc1O,4.4%,-9.6%,?,16.4µM*,4.11µM*
CC(C)(C)c1ccc(C(=O)O/N=C(\N)c2ccccn2)cc1,.,-14.8%,?,-21.8%,23.1µM*
CCN(CC)S(=O)(=O)c1ccc2c(c1)N(CC(=O)Nc1ccc(NC(C)=O)cc1)C(=O)CO2,.,1.7%,-0.4%,-17.4%,2.7%
COc1ccc(Cl)cc1C(=O)O/N=C(\N)c1ccccn1,.,10µM*,-27.6%,?,-27.9%
C/C(=N\NC(=O)c1cc(Br)ccc1O)c1ccccn1,4.0%[56.1 µM],7.6%,-30.7%,3.66µM*,3.26µM*
C/C(=N\NC(=O)c1cccc(Br)c1)c1ccccn1,4.9%,9.3%,-1.2%,0.92µM*,0.731µM*
Cc1ccc(NC(=O)c2cc(-c3cccs3)nc3ccccc23)c(C)c1,.,.,0.1%,?,-28.4%

# The listing continues.
SMILES,TDP1 inh,uPA surface inh,miR-21 reporter,TDP1 cell noCPT,DT40 TDP1 CPT
N/C(=N\OC(=O)c1cc(Cl)ccc1Cl)c1ccccn1,8.2%,?,-5.7%,-6.1%,-29.4%
C/C(=N\NC(=O)c1cc(-c2cccs2)nc2ccccc12)c1ccccn1,7.7%,?,14.5%,0.731µM*,0.651µM*
CN(C(=O)c1coc(=O)c2ccccc12)c1ccc(F)cc1,-3.1%,-1.5%,16.5%,-22.6%,-16.2%
N/C(Cc1nc2ccccc2s1)=N\O,6.8%,-7.7%,-5.6%,-10.9%,?
Cc1cccc(NC(=O)C2CCN(S(=O)(=O)c3ccc4c(c3)NC(=O)CO4)CC2)c1C,2.6%,0.8%,-0.1%,-25.3%,-24.8%
CN1C(=O)Cc2cc(S(=O)(=O)CCC(=O)N3CCN(c4ccccc4F)CC3)ccc21,0.0%,.,-0.3%,3.3%,?
COc1ccc(CN2CCC3(CCC(CNC(=O)C4CCCO4)O3)CC2)c(C)c1C (centres undefined),.,.,.,-10.1%,?
Cc1ccc(-n2nnnc2SCC(=O)NC(C(=O)O)(c2ccccc2)c2ccccc2)cc1C,-2.7%,0.5%,-2.5%,-11.0%,4.6%

# Continued.
SMILES,TDP1 inh,uPA surface inh,miR-21 reporter,TDP1 cell noCPT,DT40 TDP1 CPT
CC(C)c1ccc(CNC(=O)C2CC(=O)N(C3CCCCC3)C2)cc1 (centres undefined),3.1%,-18.1%,0.6%,-19.8%,-7.4%
Cc1cccc(N2Cc3ccc(Br)cc3C2)c1,.,-3.1%,.,7.3%,-5.9%
C/C(=N\NC(=O)c1ccccc1Cl)c1ccccn1,.,?,-43.5%,2.91µM*,2.91µM*
C/C(=N\NC(=O)Cc1ccccc1)c1ccc(Br)s1,-1.4%,8.4%,-4.4%,1.8%,3.4%
C/C(=N/NC(=O)c1ccccn1)c1ccncc1,.,-0.1%,-50.6%,-5.3%,-5.6%
C/C(=N\NC(=O)c1ccc(Cl)c(Cl)c1)c1ccccn1,.,2.0%,22.3%,0.517µM*,0.411µM*
C/C(=N/NC(N)=S)c1ccc(Br)s1,3.6%,-5.8%,19.7%,4.61µM*,8.2µM*
N/C(=N\OC(=O)/C=C/c1ccccc1Cl)c1ccccn1,5.3%,3.55µM*,-0.6%,7.9%,-4.3%

# Looked up one by one from the entries so far (6):
SMILES,TDP1 inh,uPA surface inh,miR-21 reporter,TDP1 cell noCPT,DT40 TDP1 CPT
CC(C)c1ccc(CNC(=O)C2CC(=O)N(C3CCCCC3)C2)cc1 (centres undefined),3.1%,-18.1%,0.6%,-19.8%,-7.4%
C/C(=N\NC(=O)c1ccccc1Cl)c1ccccn1,.,?,-43.5%,2.91µM*,2.91µM*
C/C(=N/NC(N)=S)c1ccc(Br)s1,3.6%,-5.8%,19.7%,4.61µM*,8.2µM*
N/C(=N\OC(=O)/C=C/c1ccccc1Cl)c1ccccn1,5.3%,3.55µM*,-0.6%,7.9%,-4.3%
C/C(=N\NC(=O)Cc1ccccc1)c1ccc(Br)s1,-1.4%,8.4%,-4.4%,1.8%,3.4%
C/C(=N\NC(=O)c1ccc(Cl)c(Cl)c1)c1ccccn1,.,2.0%,22.3%,0.517µM*,0.411µM*

# Further entries follow.
SMILES,TDP1 inh,uPA surface inh,miR-21 reporter,TDP1 cell noCPT,DT40 TDP1 CPT
CCC(Oc1ccccc1)C(=O)Nc1ccc(S(=O)(=O)Nc2cc(C)on2)cc1 (centres undefined),15.4%,-2.8%,5.2%,-10.9%,-9.4%
C/C(=N\NC(=O)C(c1ccccc1)c1ccccc1)c1ccccn1,7.6%,0.7%,5.7%,4.61µM*,4.61µM*
C/C(=N/NC(=O)c1ccc(C(C)(C)C)cc1)c1ccccn1,.,10.9%,.,0.231µM*,0.461µM*
CCCc1cc(=O)n2[nH]c(NC(=O)c3ccccc3Cl)nc2n1,0.0%,.,-0.5%,-6.7%,-14.0%
Clc1ccc(CNc2cnccn2)cc1Cl,.,-5.6%,3.1%,-20.7%,-12.9%
O=C(NCC1CCCO1)C1CCN(C2CCN(CCCC3CCCC3)CC2)CC1 (centres undefined),3.7%,-15.0%,-3.0%,23.1µM*,14.6µM*
COc1cc(OC)cc(C2=Cc3ccc(OC)cc3C(CC(C)=O)N2c2ccc(C#CCCO)cc2)c1 (centres undefined),.,.,.,20.6µM*,?
COC(=O)c1ccc(N2C(c3cc(OC)cc(OC)c3)=Cc3ccc(-c4cnc(OC)nc4)cc3C2CC(=O)C2CC2)cc1 (centres undefined),.,.,.,-28.8%,-21.1%
COc1ccc(N2C(c3cc(OC)cc(OC)c3)=Cc3ccccc3C2CC(C)=O)cc1 (centres undefined),.,.,.,16.4µM*,?
CC(=O)CC1c2ccccc2C=C(c2ccsc2)N1c1ccc(-c2cccs2)cc1 (centres undefined),.,.,.,10.3µM*,10.3µM*
